scFv variants of Ab-14 (heavy chain) against a SARS-CoV-2 spike peptide

Binding partner: SARS-CoV-2 spike HR2 peptide, sequence PDVDLGDISGINAS.

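Phage display of a naive human antibody library on the peptide gave the parent. The library (AAYL49) carries one to three amino acid substitutions per variant, with no insertions or deletions. AlphaSeq pools MATa yeast showing the antibodies with MATalpha yeast showing the peptide. After mating in shaken culture at 30 °C for 16 h, diploids were selected and their barcode pairs sequenced. Read counts were normalised to the haploid input and turned into Kd by a linear fit to BCL2-family pairs of known affinity, for each replicate. The assay was run in three technical replicates.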

Each scFv is VH, the linker GGGGSGGGGSGGGGS, VL, as in the parent Ab-14, and differs from it in the CDRs of the heavy chain only.
VH: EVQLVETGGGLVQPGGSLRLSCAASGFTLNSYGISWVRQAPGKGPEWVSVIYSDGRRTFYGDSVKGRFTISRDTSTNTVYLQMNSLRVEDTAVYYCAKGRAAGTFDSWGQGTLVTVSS
VL: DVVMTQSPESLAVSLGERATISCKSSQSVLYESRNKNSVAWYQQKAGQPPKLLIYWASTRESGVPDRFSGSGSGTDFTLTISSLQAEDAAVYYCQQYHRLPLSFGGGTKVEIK

The parent's heavy chain CDRs are GFTLNSYGIS, VIYSDGRRTFYGDSVK, GRAAGTFDS; each variant's own CDRs replace them letter for letter. Values are log10 of the apparent Kd in nM; lower means stronger binding. Replicates are averaged; those with no signal do not enter the mean. An entry "ND" has no value in the source: the pair was not observed among the diploids in that replicate. This suggests poor binding but is not conclusive. Nonspecific signal, from three strains lacking the peptide, appeared in 15% of pairings of library AAYL49, centred on 4.06 (5% of these signals below 2.83); values are not corrected for it. The control count says in how many pairings with the empty strains this scFv gave a signal, with their mean in brackets.

| # | CDR-H1 | CDR-H2 | CDR-H3 | log10 Kd (nM) by replicate | mean log10 Kd (nM) | empty controls |
|---|---|---|---|---|---|---|
| 1 | LFTLNSYGIS | VIYSDGRRTFYGDSIK | NRAAGTFDS | ND ND ND | ND | 3 of 9 (3.52) |
| 2 | GFDLNSYGIS | VIYSVGRRTFYGDSVK | GRAALTFDS | ND ND 3.61 | 3.61 | 0 of 9 |
| 3 | GYTLNYYGIS | VIYSDGRRTFYGDSVK | GRAAGTFDS | 2.42 2.07 2.22 | 2.24 | 3 of 9 (3.70) |
| 4 | GFVLNSYGKS | VIYSDGRRTFYGDSVK | GRAAGTFDY | ND ND 3.29 | 3.29 | 3 of 9 (4.29) |
| 5 | GFTLNSYGIS | VHYSDGRRCCYGDSVK | GRAAGTFDS | ND ND ND | ND | 1 of 9 (4.91) |
| 6 | GFTLNSNGIS | VFYSDGRRTFYGDSVY | GRAAGTFDS | ND 4.80 ND | 4.80 | 1 of 9 (3.38) |
| 7 | GFTLNSYGIS | VIYSDGRQTFAGDSVK | GRAAGTFDS | ND 5.01 ND | 5.01 | 3 of 9 (3.40) |
| 8 | GFTLNSYGIS | RIYQDGRRTFYGDSVK | GRAAGTFKS | ND ND 4.98 | 4.98 | 1 of 9 (2.95) |
| 9 | GFYLNSYGIS | VIYSDGRRTFYGDSEK | PRAAGTFDS | ND ND ND | ND | 0 of 9 |
| 10 | GFTLNYYGIS | VIYSDGRRTKYGDSVK | GRAAGTFDS | ND ND 3.51 | 3.51 | 0 of 9 |
| 11 | GFTLNSYGIS | VIYSDRRRTFYKDSVK | GRAAGGFDS | ND 5.25 3.95 | 4.60 | 5 of 9 (4.21) |
| 12 | KFTLNVYGIS | VIYSDGRRTFYGDSVK | GRYAGTFDS | 2.15 2.58 2.59 | 2.44 | 2 of 9 (4.59) |
| 13 | GFTLNSYGIS | VIYSQGRRTFYGDSVL | GRLAGTFDS | 5.07 ND ND | 5.07 | 4 of 9 (4.34) |
| 14 | GFTLNSYGIM | VIYSDGIRTFYGDSVK | GRAAGTFDN | 3.41 ND 4.55 | 3.98 | 1 of 9 (4.61) |
| 15 | GFTLNHYGIS | VIYSDGPRTFYGDSVK | GRHAGTFDS | ND ND ND | ND | 0 of 9 |
| 16 | GFTLNSYGIS | SIYSDGRRTFYGDSVK | FRAAGDFDS | ND ND ND | ND | 1 of 9 (2.68) |
| 17 | GFTLNSYGIS | VIYSDGRRTFYGDSTK | GRAAGTLDS | ND 4.33 ND | 4.33 | 3 of 9 (3.95) |
| 18 | GFTLNSYGIS | VIYSFGRRQFYGDSVK | GRAYGTFDS | ND ND ND | ND | 3 of 9 (3.92) |
| 19 | PFTLNSYGIS | VIYSDGRRTFYGDSVF | GRAAGSFDS | 4.87 ND ND | 4.87 | 5 of 9 (4.28) |

Second part, the sequence after the result:

| # | log10 Kd (nM) by replicate | mean log10 Kd (nM) | empty controls | CDR-H1 | CDR-H2 | CDR-H3 |
|---|---|---|---|---|---|---|
| 20 | ND ND ND | ND | 0 of 9 | GFTLNSYGIS | VIYSDGNRTFYGDSGK | GSAAGTFDS |
| 21 | 4.65 ND ND | 4.65 | 1 of 9 (4.22) | GFTLNSYSIS | VIYWDGRRTFYGDSVK | GRAALTFDS |
| 22 | ND ND ND | ND | 0 of 9 | GFTWNSYGIS | VIYSDGRRTVYGDSVK | GRAAGNFDS |
| 23 | ND 3.50 ND | 3.50 | 1 of 9 (3.60) | GFTLNSYGIS | VIYSDGRRTDYGDSVK | GRAIGTFDS |
| 24 | 5.76 4.65 5.65 | 5.35 | 2 of 9 (4.58) | GFTLNSYGVS | VIYWDGRRTFLGDSVK | GRAAGTFDS |
| 25 | ND 4.56 ND | 4.56 | 5 of 9 (3.98) | GFTLNSYGIS | VIYSDGRDTFYGDSVK | GRCAGPFDS |
| 26 | 3.21 ND 4.02 | 3.62 | 1 of 9 (2.46) | GLTLNSYGIS | VKYSDGRRTFYGDSNK | GRAAGTFDS |
| 27 | ND ND ND | ND | 3 of 9 (4.52) | GFTLNSYGIS | VIYSDGRRTFYNDSVK | GRAAKTFQS |
| 28 | 2.82 ND ND | 2.82 | 1 of 9 (2.82) | GFTLNSYGIS | VIYSDGRRQFYGDSVK | GRAEGTFDS |
| 29 | ND ND ND | ND | 0 of 9 | GFTLVSEGIS | VIYSDGRRTFYGDSWK | GRAAGTFDS |
| 30 | ND 4.10 ND | 4.10 | 0 of 9 | GFTLNSYGIS | IIYSDGRRTFYGDSVP | GRAAGTFDS |
| 31 | ND ND ND | ND | 1 of 9 (4.53) | GFTLQSYGIW | VIYSDGRRTFEGDSVK | GRAAGTFDS |
| 32 | ND ND ND | ND | 1 of 9 (5.17) | KFTWNSYGHS | VIYSDGRRTFYGDSVK | GRAAGTFDS |
| 33 | ND ND ND | ND | 1 of 9 (3.07) | GFTLNSYFIS | VNYSDGRRTFYLDSVK | GRAAGTFDS |
| 34 | ND ND ND | ND | 1 of 9 (3.08) | GFTLNSYGIS | VIYSDGRRTFYGDSVK | FRATGTWDS |
| 35 | 1.91 2.13 2.10 | 2.04 | 0 of 9 | GFTLNSYGIS | VIYSDGRRAFYGDTVK | GRAAGTFDN |
| 36 | 0.20 0.55 0.47 | 0.41 | 1 of 9 (3.66) | GFTLNSYGIS | VIYADGQRTFYGDSVK | GRASGTFDS |
| 37 | ND 4.78 ND | 4.78 | 2 of 9 (3.75) | FFTLNVYGIS | VIYSDGRRTFYGDSVK | GRAAGWFDS |
| 38 | ND ND ND | ND | 0 of 9 | GFTLNSYGIS | VIYSDGRRWFYGDSVK | ARGAGTFDS |
| 39 | ND ND 3.57 | 3.57 | 1 of 9 (3.78) | MITLNSYVIS | VIYSDGRRTFYGDSVK | GRAAGTFDS |

A selection of 5 entries from above:

CDR-H1	CDR-H2	CDR-H3	log10 Kd (nM) by replicate	mean log10 Kd (nM)	empty controls
GFDLNSYGIS	VIYSVGRRTFYGDSVK	GRAALTFDS	ND ND 3.61	3.61	0 of 9
GFTLNSYGIS	VIYSDRRRTFYKDSVK	GRAAGGFDS	ND 5.25 3.95	4.60	5 of 9 (4.21)
GFTLNSYGIS	VIYSDGRRTFYGDSVK	FRATGTWDS	ND ND ND	ND	1 of 9 (3.08)
GFTLNSYGVS	VIYWDGRRTFLGDSVK	GRAAGTFDS	5.76 4.65 5.65	5.35	2 of 9 (4.58)
GYTLNYYGIS	VIYSDGRRTFYGDSVK	GRAAGTFDS	2.42 2.07 2.22	2.24	3 of 9 (3.70)

In this assay the parent's reference entry averaged 0.65; its copy inside this library read 4.11 (one replicate of three).

From the AlphaSeq antibody data of Engelhart et al. 2022 (doi:10.1038/s41597-022-01779-4), copy in the FLAb collection.